Reference: ChEMBL document CHEMBL1135195, “2-(2-Hydroxy-3-alkoxyphenyl)-1H-benzimidazole-5-carboxamidine derivatives as potent and selective urokinase-type plasminogen activator inhibitors” (Bioorg Med Chem Lett, 2002)

molecular target: Urokinase-type plasminogen activator (Homo sapiens, UniProt P00749)

Row | Structure (SMILES) | Ki [nM]
1 | N=C(N)c1cc2[nH]c(-c3cccc(OC4CCNC4)c3O)nc2cc1F (stereo not drawn) | 1200
2 | CCOc1cccc(-c2cc3cc(C(=N)N)ccc3[nH]2)c1O | 450
3 | N=C(N)c1cc2[nH]c(-c3cccc(OC[C@H]4CCCN4)c3O)nc2cc1F | 700
